## Binding of CDR-mutated scFvs to a peptide of the spike HR2 region

From the AlphaSeq antibody data of Li et al. 2023 (doi:10.1038/s41467-023-39022-2), copy in the FLAb collection.

Antigen: PDVDLGDISGINAS, a 14-residue peptide of the SARS-CoV-2 spike HR2 region.

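The parent was found by panning a naive human phage display library on the peptide. These sequences belong to a second round, designed from the earlier measurements on random variants of the parent. Several design methods are mixed in this list. Affinity was read by AlphaSeq, a pooled yeast mating assay with surface-displayed partners. Binding brings cells together so that they mate, and sequencing counts the barcode pairs among the diploids. Read counts were normalised to the haploid input and turned into Kd by a linear fit to BCL2-family pairs of known affinity, for each replicate. Mating was done six times.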

The variants keep the heavy chain, the linker and the frameworks of Ab-14 (scFv order VH, a 15-residue (Gly4Ser)3 linker, VL).
VH: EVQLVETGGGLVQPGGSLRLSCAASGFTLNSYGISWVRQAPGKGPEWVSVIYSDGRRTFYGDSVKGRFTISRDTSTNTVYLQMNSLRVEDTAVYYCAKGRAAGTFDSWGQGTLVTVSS
VL: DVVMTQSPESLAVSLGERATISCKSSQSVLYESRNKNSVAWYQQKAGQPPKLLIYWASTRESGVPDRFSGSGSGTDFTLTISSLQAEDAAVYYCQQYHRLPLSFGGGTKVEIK

Variants are written as CDR1, CDR2 and CDR3 of the light chain (limits as in the source). Parent: KSSQSVLYESRNKNSVA, WASTRES, QQYHRLPLS. Values are apparent Kd, the geometric mean of the replicates that gave a signal; lower means stronger binding. An entry "not detected" has no value in the source: the pair was not observed among the diploids in any replicate. This suggests poor binding but is not conclusive. The authors' rule: three or more of the six replicates give a measured affinity, fewer mean a poor binder.

| # | CDR-L1 | CDR-L2 | CDR-L3 | Kd | replicates with signal |
|---|---|---|---|---|---|
| 1 | TLSYASLLESVKRNNVA | ENSTREQ | QQYDRLPLA | not detected | 0 of 6 |
| 2 | KASQSVLYESRNKNSVA | WASTRES | QQYHRLPLE | 93 nM | 2 of 6 |
| 3 | KLPQSNLYESRNKNSVA | EASTRES | QQYHRLPLS | 870 pM | 6 of 6 |
| 4 | KSPQSQLYESRNKNSVA | HASTRED | QSYHRLPLS | not detected | 0 of 6 |
| 5 | KSSQDELYESRNKNSVA | AASWRES | QQYHRLPLS | 5.5 nM | 6 of 6 |
| 6 | NLVGRAQMQDSGRQAIA | NAHARCT | QQYFHLPLT | 4.2 nM | 6 of 6 |
| 7 | KVSEFMRGLMQKQDSIA | DNQTRNS | QQYDRLPLS | 30 nM | 6 of 6 |
| 8 | KLSDSVLYESRNKNSVA | EASTRES | QQYHRLPLS | 530 pM | 6 of 6 |
| 9 | KHSQSVLYESRNKNSVA | GASTREA | QQYHRLPLS | 940 pM | 6 of 6 |
| 10 | KLSQSDLYEDRNLNNVA | NASQRES | QVYHRLPLS | 560 pM | 6 of 6 |
| 11 | KLEQSVDYESRNKNSVA | NASQRES | QQYHRLPLS | 2.5 nM | 6 of 6 |
| 12 | KLSQSTLYESRNKNSVA | GASTRES | QQYHRLPLS | 3.1 nM | 6 of 6 |
| 13 | KLSQSVGYQSRNKNSVA | NASTRED | QQYHRLPLS | 780 pM | 6 of 6 |
| 14 | MIAESVGYQSRNKNSVA | DNSTRED | QCYDRLPLS | 220 nM | 3 of 6 |
| 15 | KLSPSWLGEMRNDNSVA | NASTRLS | QQYHRLPLS | 2.7 nM | 6 of 6 |
| 16 | KSSQSWLYEGRNKNSVA | WASTRES | QQYHRLPLS | 12 nM | 6 of 6 |
| 17 | MNSQSVLNESDDKNSVA | WASTRES | QQYHRLPLS | 400 nM | 2 of 6 |
| 18 | FMEMDFQGNSGNHNSIA | SEEVVTR | QHYARLPLS | 15 nM | 1 of 6 |
| 19 | HITDLMYNNNEGMQNIA | DKAISVN | QQYFRLPLD | 7.1 nM | 6 of 6 |
| 20 | TIGGTLMYGMRNRSNVA | EVSERLN | QQYDRLPLE | 47 nM | 6 of 6 |
| 21 | KLSSLQFDSYMEKENVA | ESTQVFN | QQYHRLPLA | 28 nM | 6 of 6 |
| 22 | KLSQSYDYESRNKNSVA | NASTRES | QQYHRLPLS | 2.6 nM | 6 of 6 |
| 23 | KLQQSWLYESRNKNSVA | NASTRLS | QDYHRLPLS | 430 pM | 6 of 6 |
| 24 | KYSQSVLYESRNKNSVA | WASTRES | QQYFRLPLS | 290 nM | 2 of 6 |
| 25 | KLSQLFYKEMRNKNNVA | EMTTRGS | QQYDRLPLS | 1.7 nM | 6 of 6 |
| 26 | KLTQLTHIESFNKNNVA | EMTTRES | QSYDRLPLS | 100 nM | 6 of 6 |
| 27 | SLSMSMAFLSRNKNSVA | ENSTREE | QQYHRLPLL | 81 nM | 6 of 6 |
| 28 | KSLQSQEYESRNKNSVA | HASQRED | QQYHRLPLS | 890 pM | 6 of 6 |
| 29 | KMSQSVLFEPRNKNSVA | DASTRES | QQYHRLPLS | 160 pM | 6 of 6 |
| 30 | KFSQSVLYESRTQNGVA | NASTRES | QQYHRLPLS | 570 pM | 6 of 6 |
| 31 | KQSQSVLGEQRNKNSVA | DISTRES | QQYHRLPLS | 1.8 nM | 6 of 6 |
| 32 | KLSMSYRYETEEKNSIA | ELVTRVS | QQYHRLPLS | not detected | 0 of 6 |
| 33 | MVNGIMDHLSKNSNNVA | ETETRNS | QQYDRLPLS | 8.0 nM | 6 of 6 |
| 34 | IVSQLMLWGYHAKNSIA | EAETRPN | QQYDRLPLF | 370 nM | 1 of 6 |
| 35 | KSSQSVLYESRNKNSVA | GALTRES | QQYHRLPLS | 45 nM | 5 of 6 |
| 36 | KISGYLNKESKMKNSVA | EMVNRES | QQYDRLPLS | 15 nM | 6 of 6 |
| 37 | KVMQSNLYESRNKNSVA | NASQRES | QQYHRLPLS | 1.2 nM | 6 of 6 |
| 38 | KIGMTLNQLMHKKNNVA | DLVMREN | QQYFRLPLS | 12 nM | 6 of 6 |
| 39 | KLSQSVLYESRNKNSVA | HASTRED | QQYHRLPLS | 670 pM | 6 of 6 |
| 40 | KLSQSELYESRNKNSVA | EASTRSS | QQYHRLPLS | 660 pM | 6 of 6 |
| 41 | KVSQSVLMESRNSNSVA | DASTRES | QQYHRLPLS | 710 pM | 6 of 6 |
| 42 | RLSEYSHFESKKKNSVA | ENSTREE | QQYDHLPLS | 48 nM | 5 of 6 |
| 43 | KSSQSVPQESRNTNSVA | WADRRES | CQYHRLILS | not detected | 0 of 6 |
| 44 | KMPQSVLYESRNKNSVA | HASTRED | QSYHRLPLS | 3.2 nM | 6 of 6 |
| 45 | KVSASQLYWSRNKNSVA | NASTRET | QQYHRLPLS | 620 pM | 6 of 6 |
| 46 | KCSFSTLYESRNSNSVA | WASTRES | QQYHRLPLS | 9.3 nM | 6 of 6 |
| 47 | KSSWSVLDESRNKNSVA | DASTRSS | QQYHRLPLS | 1.0 nM | 6 of 6 |
| 48 | MFSQSVMYGSFARNSVA | QTSTRES | QQYDRLPLS | 9.7 nM | 6 of 6 |
| 49 | KLYYHEVGLVNGQNSIA | EGDQLTF | QQYSHLPLS | 13 nM | 6 of 6 |
| 50 | MMSQVWGLGQRHRNNVA | QTSMRET | QQYDRLPLI | 18 nM | 6 of 6 |

Extract of 7 entries:

{"CDR-L1": "TLSYASLLESVKRNNVA", "CDR-L2": "ENSTREQ", "CDR-L3": "QQYDRLPLA", "Kd": "not detected", "replicates with signal": "0 of 6"}
{"CDR-L1": "KLSPSWLGEMRNDNSVA", "CDR-L2": "NASTRLS", "CDR-L3": "QQYHRLPLS", "Kd": "2.7 nM", "replicates with signal": "6 of 6"}
{"CDR-L1": "KLEQSVDYESRNKNSVA", "CDR-L2": "NASQRES", "CDR-L3": "QQYHRLPLS", "Kd": "2.5 nM", "replicates with signal": "6 of 6"}
{"CDR-L1": "KSLQSQEYESRNKNSVA", "CDR-L2": "HASQRED", "CDR-L3": "QQYHRLPLS", "Kd": "890 pM", "replicates with signal": "6 of 6"}
{"CDR-L1": "KMPQSVLYESRNKNSVA", "CDR-L2": "HASTRED", "CDR-L3": "QSYHRLPLS", "Kd": "3.2 nM", "replicates with signal": "6 of 6"}
{"CDR-L1": "KFSQSVLYESRTQNGVA", "CDR-L2": "NASTRES", "CDR-L3": "QQYHRLPLS", "Kd": "570 pM", "replicates with signal": "6 of 6"}
{"CDR-L1": "KLSQSYDYESRNKNSVA", "CDR-L2": "NASTRES", "CDR-L3": "QQYHRLPLS", "Kd": "2.6 nM", "replicates with signal": "6 of 6"}

Three control strains display no target. For all light chain designs, 4% of the pairings with them gave a signal, with a median of 430 nM and one signal in twenty below 38 nM, so weak values seen in few replicates may be background. A sequence measured in both rounds can read differently, since the two assays cover different ranges.